Tested on: active Caspase 3
Assay: Caspase 3 activation assay in MCF-7

COc1ccc2[nH]c(=O)cc(-n3cc(COc4ccc(C(c5c(O)c6cc(OC)ccc6[nH]c5=O)c5c(O)c6cc(OC)ccc6[nH]c5=O)cc4)nn3)c2c1 [Compound 8g, 3,3’-((4-((1-(6-Methoxy-2-oxo-1,2-dihydroquinolin-4-yl)-1H-1,2,3-triazol-4-yl)methoxy)phenyl)methylene)bis(4-hydroxy-6-methoxyquinolin-2(1H)-one)] was tested, and the “Caspase 3 Conc” value was 489.2 ± 4.13 pg/mL.

Source: article PMC8620910, “Design and Synthesis of (2-oxo-1,2-Dihydroquinolin-4-yl)-1,2,3-triazole Derivatives via Click Reaction: Potential Apoptotic Antiproliferative Agents” (Molecules, 2021)
